Tested on: DPP4
Conditions: virus infected cells

For `N[C@@H](CC(=O)N1CCn2c(nnc2C(F)(F)F)C1)Cc1cc(F)c(F)cc1F` [Sitagliptin, sitagliptin], the “cellular DPP4 enzymatic activity in infected cells” value was “significantly reduced”.

Source: publication PMC10293653 (International Journal of Biological Macromolecules, 2023)
